Chains of the proteins cited; added tags and fusions are not shown. Residues count along the entry.
UniProt P81908, whole entry: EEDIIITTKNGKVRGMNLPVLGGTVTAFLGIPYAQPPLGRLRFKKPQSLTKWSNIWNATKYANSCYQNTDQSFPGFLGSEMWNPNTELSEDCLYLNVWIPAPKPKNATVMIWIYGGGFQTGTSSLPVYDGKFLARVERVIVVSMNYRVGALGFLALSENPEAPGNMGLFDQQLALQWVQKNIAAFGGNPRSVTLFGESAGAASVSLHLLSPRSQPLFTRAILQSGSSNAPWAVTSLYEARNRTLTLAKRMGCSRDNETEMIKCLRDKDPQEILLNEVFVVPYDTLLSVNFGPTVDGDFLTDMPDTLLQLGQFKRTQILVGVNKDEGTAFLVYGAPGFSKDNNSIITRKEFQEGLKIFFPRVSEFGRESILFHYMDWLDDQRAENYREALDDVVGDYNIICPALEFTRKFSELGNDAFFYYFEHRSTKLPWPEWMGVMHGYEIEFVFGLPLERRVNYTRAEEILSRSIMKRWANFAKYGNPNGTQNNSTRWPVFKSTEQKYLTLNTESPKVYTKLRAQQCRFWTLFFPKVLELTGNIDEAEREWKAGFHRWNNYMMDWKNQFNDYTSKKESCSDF
UniProt P02550, whole entry: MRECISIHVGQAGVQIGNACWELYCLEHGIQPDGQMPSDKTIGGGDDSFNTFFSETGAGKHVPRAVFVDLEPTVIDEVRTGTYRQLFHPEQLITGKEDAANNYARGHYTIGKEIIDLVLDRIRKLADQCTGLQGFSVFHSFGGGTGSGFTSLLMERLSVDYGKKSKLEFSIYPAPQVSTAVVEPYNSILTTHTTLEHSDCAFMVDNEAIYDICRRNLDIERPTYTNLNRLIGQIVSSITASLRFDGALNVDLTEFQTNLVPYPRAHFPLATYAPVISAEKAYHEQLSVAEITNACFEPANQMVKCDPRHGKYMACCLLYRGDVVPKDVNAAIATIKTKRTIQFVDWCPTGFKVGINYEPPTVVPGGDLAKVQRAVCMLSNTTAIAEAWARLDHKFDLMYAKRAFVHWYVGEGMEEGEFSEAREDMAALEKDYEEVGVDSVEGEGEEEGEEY
UniProt P02554, whole entry: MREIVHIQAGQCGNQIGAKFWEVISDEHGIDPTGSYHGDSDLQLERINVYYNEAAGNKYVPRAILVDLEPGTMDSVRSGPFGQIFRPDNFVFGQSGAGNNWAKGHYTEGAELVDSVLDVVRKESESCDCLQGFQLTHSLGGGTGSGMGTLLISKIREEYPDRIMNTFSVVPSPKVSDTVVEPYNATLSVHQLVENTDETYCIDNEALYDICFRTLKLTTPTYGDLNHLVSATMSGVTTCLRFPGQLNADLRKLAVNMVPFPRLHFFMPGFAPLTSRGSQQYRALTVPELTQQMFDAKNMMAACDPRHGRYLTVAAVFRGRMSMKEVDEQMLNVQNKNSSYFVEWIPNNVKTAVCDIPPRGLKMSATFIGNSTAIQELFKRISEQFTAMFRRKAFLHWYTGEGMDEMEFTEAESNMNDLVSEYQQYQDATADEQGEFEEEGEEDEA
UniProt Q00960, 27-1482 limits assumed: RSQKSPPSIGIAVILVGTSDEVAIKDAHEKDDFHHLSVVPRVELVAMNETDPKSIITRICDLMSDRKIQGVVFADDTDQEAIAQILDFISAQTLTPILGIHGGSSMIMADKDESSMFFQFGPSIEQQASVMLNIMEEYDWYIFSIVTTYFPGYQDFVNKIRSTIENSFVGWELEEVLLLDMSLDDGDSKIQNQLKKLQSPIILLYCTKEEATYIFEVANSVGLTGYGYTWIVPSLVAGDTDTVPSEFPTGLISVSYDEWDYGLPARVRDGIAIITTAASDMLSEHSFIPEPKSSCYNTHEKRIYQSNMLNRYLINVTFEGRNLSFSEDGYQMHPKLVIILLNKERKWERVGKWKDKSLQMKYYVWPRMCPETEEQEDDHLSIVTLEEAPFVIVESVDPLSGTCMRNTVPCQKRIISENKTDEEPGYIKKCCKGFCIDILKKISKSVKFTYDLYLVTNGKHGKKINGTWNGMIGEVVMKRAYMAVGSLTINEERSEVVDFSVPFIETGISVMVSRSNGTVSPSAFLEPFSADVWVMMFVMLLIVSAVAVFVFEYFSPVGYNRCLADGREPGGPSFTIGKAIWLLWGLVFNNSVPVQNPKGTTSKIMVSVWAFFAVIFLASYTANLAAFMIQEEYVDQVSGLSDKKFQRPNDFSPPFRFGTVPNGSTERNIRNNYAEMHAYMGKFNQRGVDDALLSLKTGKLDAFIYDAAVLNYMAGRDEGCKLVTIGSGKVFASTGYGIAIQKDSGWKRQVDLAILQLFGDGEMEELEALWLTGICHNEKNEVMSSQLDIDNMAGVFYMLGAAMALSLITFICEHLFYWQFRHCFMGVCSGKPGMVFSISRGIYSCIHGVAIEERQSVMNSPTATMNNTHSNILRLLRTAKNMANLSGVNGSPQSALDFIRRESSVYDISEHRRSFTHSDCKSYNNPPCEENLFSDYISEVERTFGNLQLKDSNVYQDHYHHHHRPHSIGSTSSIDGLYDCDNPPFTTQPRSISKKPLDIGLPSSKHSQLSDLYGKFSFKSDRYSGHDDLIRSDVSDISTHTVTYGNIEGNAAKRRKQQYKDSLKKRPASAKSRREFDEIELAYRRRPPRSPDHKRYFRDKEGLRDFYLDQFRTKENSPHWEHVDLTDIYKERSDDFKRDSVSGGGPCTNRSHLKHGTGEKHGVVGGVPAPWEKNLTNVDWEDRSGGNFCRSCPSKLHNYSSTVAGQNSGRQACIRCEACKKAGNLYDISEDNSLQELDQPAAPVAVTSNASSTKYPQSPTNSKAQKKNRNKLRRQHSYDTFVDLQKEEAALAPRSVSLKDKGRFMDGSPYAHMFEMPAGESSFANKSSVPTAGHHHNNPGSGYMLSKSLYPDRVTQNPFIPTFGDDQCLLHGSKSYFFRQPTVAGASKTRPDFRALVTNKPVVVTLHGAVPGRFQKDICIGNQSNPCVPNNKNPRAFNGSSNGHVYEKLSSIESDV
UniProt P22303, 32-617 isoform 2 limits assumed: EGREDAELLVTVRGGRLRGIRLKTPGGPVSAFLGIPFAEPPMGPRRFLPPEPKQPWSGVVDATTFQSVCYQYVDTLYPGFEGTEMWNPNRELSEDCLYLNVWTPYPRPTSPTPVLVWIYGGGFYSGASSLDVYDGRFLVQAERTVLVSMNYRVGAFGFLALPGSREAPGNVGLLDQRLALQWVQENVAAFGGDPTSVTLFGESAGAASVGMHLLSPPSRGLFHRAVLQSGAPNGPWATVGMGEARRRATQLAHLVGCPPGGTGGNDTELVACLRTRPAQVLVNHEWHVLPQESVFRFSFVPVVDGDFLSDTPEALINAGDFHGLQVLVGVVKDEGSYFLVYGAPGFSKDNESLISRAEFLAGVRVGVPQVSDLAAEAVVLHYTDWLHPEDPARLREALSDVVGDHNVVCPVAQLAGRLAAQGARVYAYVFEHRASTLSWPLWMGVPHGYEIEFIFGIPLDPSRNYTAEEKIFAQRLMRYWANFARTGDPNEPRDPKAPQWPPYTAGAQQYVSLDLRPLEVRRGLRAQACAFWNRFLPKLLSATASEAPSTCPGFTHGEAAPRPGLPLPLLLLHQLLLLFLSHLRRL
UniProt Q29550, 19-566 limits assumed: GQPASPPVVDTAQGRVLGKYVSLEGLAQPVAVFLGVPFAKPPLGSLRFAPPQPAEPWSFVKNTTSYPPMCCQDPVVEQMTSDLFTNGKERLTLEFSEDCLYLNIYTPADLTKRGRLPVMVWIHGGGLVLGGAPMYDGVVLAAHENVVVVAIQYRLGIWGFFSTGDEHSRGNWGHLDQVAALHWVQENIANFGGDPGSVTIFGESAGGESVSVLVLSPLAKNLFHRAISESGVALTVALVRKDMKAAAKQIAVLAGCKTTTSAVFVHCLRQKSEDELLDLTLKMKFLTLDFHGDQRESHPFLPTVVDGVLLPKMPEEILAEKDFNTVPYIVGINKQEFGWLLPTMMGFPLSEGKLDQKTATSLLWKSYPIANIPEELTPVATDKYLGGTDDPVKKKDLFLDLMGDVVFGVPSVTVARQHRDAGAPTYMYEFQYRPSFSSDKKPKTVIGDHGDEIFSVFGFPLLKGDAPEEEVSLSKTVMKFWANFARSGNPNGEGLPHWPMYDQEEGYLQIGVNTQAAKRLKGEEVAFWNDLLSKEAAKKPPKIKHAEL

In publication PMC5372361 (Scientific Reports, 2017):

Tests used:
[1] = target: equine serum BChE (Equus caballus, UniProt P81908); conditions: read-out: IC50 ± SEM, BChE, pH 7.5, 25 °C, 10 min pre-incubation
[2] = target: tubulin (Sus scrofa, UniProt P02550+P02554); assay: Tubulin polymerization to microtubules (absorbance at 355 nm); type: biochemical; conditions: at 100 μM of compound; 100% = vehicle control (10% DMSO)
[3] = target: ifenprodil binding site of NMDA receptors containing NR2B subunits (Rattus norvegicus, UniProt P35439+Q00960); assay: Radioligand binding, competition with [3H]ifenprodil; conditions: rat hippocampal membranes; for IC50: read-out: [3H]ifenprodil, IC50
[4] = target: human erythrocyte AChE (Homo sapiens, UniProt P22303); conditions: for inhibition % at 20 μM, AChE: 20 μM of compound; for IC50: read-out: IC50 ± SEM, AChE, human erythrocyte AChE, pH 7.5, 25 °C, 10 min pre-incubation
[5] = target: MK-801 binding (intrachannel) site of NMDA receptor (Rattus norvegicus, UniProt P35439); assay: Radioligand binding, competition with [3H]MK-801; conditions: rat hippocampal membranes; for IC50: read-out: [3H]МК-801, IC50
[6] = target: porcine liver CaE (Sus scrofa, UniProt Q29550); assay: In vitro CaE inhibition (4-nitrophenyl acetate hydrolysis); conditions: for inhibition % at 20 μM, CaE: 20 μM of compound; for IC50: read-out: IC50 ± SEM, CaE, porcine liver CaE, pH 8.0, 25 °C
[7] = system: SH-SY5Y neuroblastoma cells; assay: Ionomycin-induced toxicity in SH-SY5Y neuroblastoma cells (MTT test); conditions: 24 h; for cell survival under ionomycin: 1 μM of compound, 3 μM ionomycin, MTT; for effect on cell survival (MTT test) in the absence of ionomycin: studied concentrations (0.1 and 1 μM)
[8] = system: isolated mitochondria; conditions: cited from earlier work
[9] = target: BChE (Equus caballus, UniProt P81908)

| Compound | IC50 [1] | (dA355/dt)max, % of control [2] | % of [3H]ifenprodil blockade at 100 μM of compound [3] | IC50 [3] | inhibition % at 20 μM, AChE [4] | IC50 [4] | % of [3H]МК-801 blockade at 100 μM of compound [5] | IC50 [5] | inhibition % at 20 μM, CaE [6] | IC50 [6] | cell survival under ionomycin [7] | effect on cell survival (MTT test) in the absence of ionomycin [7] | effect on calcium-induced swelling of isolated mitochondria [8] | Ki [9] |
| --- | --- | --- | --- | --- | --- | --- | --- | --- | --- | --- | --- | --- | --- | --- |
| CC12CC3CC(C)(C1)CC(NCC(O)Cn1c4ccc(Cl)cc4c4cc(Cl)ccc41)(C3)C2 (stereo not drawn) | 40.7 µM | 101 ± 15% | 71.4 ± 5.7% | 14.6 µM | 4.0% | > 20 µM | 72.8 ± 6.8% | 22.4 µM |  |  |  |  |  |  |
| Cc1ccc2c(c1)c1c(n2CC(O)CNC23CC4CC(CC(C4)C2)C3)CCC(C)C1 (stereo not drawn) | 9.17 µM | 158 ± 19% | 67.2 ± 7.3% | 8.1 µM | 7.1% | > 20 µM | 29.3 ± 6.4% | > 100 µM | 20.0% | > 20 µM |  |  |  |  |
| Cc1ccc2c(c1)c1c(n2CC(O)CNC23CC4CC(C)(CC(C)(C4)C2)C3)CCC(C)C1 (stereo not drawn) | 8.24 µM | 133 ± 14% | 71.4 ± 6.5% | 10.3 µM | 7.3% | > 20 µM | 65.2 ± 5.3% | 19.5 µM | 10.3% | > 20 µM |  |  |  |  |
| OC(CNC12CC3CC(CC(C3)C1)C2)Cn1c2c(c3ccccc31)CCCC2 (stereo not drawn) | 7.29 µM | 155 ± 22% | 71.6 ± 8.3% | 82.5 µM | 4.6% | > 20 µM | 32.3 ± 3.0% | > 100 µM | 17.9% | > 20 µM |  |  |  |  |
| OC(CNC12CC3CC(CC(C3)C1)C2)Cn1c2ccc(Cl)cc2c2cc(Cl)ccc21 (stereo not drawn) | 23.7 µM | 100 ± 8% | 70.6 ± 7.1% | 21.8 µM | 13.1% | > 20 µM | 28.3 ± 1.8% | > 100 µM |  | 50.1 µM |  |  |  |  |
| CC12CC3CC(C)(C1)CC(NCC(O)Cn1c4c(c5cc(F)ccc51)CCCC4)(C3)C2 (stereo not drawn) | 5.43 µM |  | 87.2 ± 7.3% | 10.4 µM | 8.8% | > 20 µM | 88.5 ± 9.0% | 27.4 µM | 16.5% | > 20 µM | 84 ± 4% | did not affect the MTT test parameters |  |  |
| OC(CNC12CC3CC(CC(C3)C1)C2)Cn1c2c(c3cc(F)ccc31)CCCC2 (stereo not drawn) | 8.66 µM | 164 ± 18% | 48.4 ± 5.2% | > 100 µM | 4.9% | > 20 µM | 0 ± 2.0% | > 100 µM | 15.4% | > 20 µM | 89 ± 4% | did not affect the MTT test parameters | diminish, in the dose-dependent manner | 4.62 µM |
| CC12CC3CC(C)(C1)CC(NCC(O)Cn1c4ccc(Br)cc4c4cc(Br)ccc41)(C3)C2 (stereo not drawn) | 55.4 µM | 104 ± 24% | 67.6 ± 5.8% | 31.5 µM | 6.1% | > 20 µM | 33.8 ± 3.5% | > 100 µM |  |  |  |  |  |  |
| OC(CNC12CC3CC(CC(C3)C1)C2)Cn1c2ccccc2c2ccccc21 (stereo not drawn) | 15.9 µM |  | 74.2 ± 6.8% | 8.2 µM | 2.8% | > 20 µM | 83.5 ± 7.6% | 75.3 µM | 9.3% | > 20 µM |  |  |  |  |
| CC12CC3CC(C)(C1)CC(NCC(O)Cn1c4ccccc4c4ccccc41)(C3)C2 (stereo not drawn) | 7.6 µM | 249 ± 16% | 76.2 ± 6.6% | 21.3 µM |  |  | 68.5 ± 5.4% | 59.1 µM | 10.5% | > 20 µM |  |  |  | 2.11 µM |
| Cc1ccc2c(c1)c1c(n2CC(O)CNC23CC4CC(CC(C4)C2)C3)CCCC1 (stereo not drawn) | 20 µM | 152 ± 12% | 51.6 ± 7.2% | 98.4 µM | 3.9% | > 20 µM | 0 ± 2.0% | > 100 µM | 15.1% | > 20 µM |  |  |  |  |
| OC(CNC12CC3CC(CC(C3)C1)C2)Cn1c2ccc(Br)cc2c2cc(Br)ccc21 (stereo not drawn) | 20.7 µM | 124 ± 17% | 85.3 ± 7.6% | 22.9 µM | 5.5% | > 20 µM | 55.1 ± 4.9% | 79.4 µM | 25.3% | > 20 µM |  |  |  |  |
| CC12CC3CC(C)(C1)CC(NCC(O)Cn1c4c(c5ccccc51)CCCC4)(C3)C2 (stereo not drawn) | 6.13 µM | 127 ± 10% | 58.4 ± 5.6% | 65.5 µM | 5.1% | > 20 µM | 62.2 ± 6.3% | 14.2 µM | 10.1% | > 20 µM |  |  |  |  |
| Cc1ccc2c(c1)c1c(n2CC(O)CNC23CC4CC(C)(CC(C)(C4)C2)C3)CCCC1 (stereo not drawn) | 33 µM | 182 ± 16% | 31.4 ± 3.1% | > 100 µM | 2.2% | > 20 µM | 18.3 ± 2.0% | > 100 µM | 12.3% | > 20 µM |  |  |  |  |
